Values of other authors, collected in patent US12251363B2, “Compositions to enhance a non-surgical medical treatment” (Anti-Plasmin Technologies, LLC, priority 2017, dated 2025).

Details: dermal filler procedure; cited from earlier work

Q: With `NC[C@H]1CC[C@H](C(=O)O)CC1` [tranexamic acid] as the compound, how does the “time in contact with hyaluronic acid material in the skin before tranexamic acid is metabolized by the body” value read?
A: no more than 18 hours
